Earlier results as cited in patent US10724950B2, “Analysis method for interpreting Taylor dispersion data” (SARTORIUS BIOANALYTICAL INSTRUMENTS, INC., priority 2015, dated 2020).

Details: known value used in the fitting process

Substance: bovine serum albumin [BSA]
- Dm, analyte diffusion coefficient of monomer species: 6.03×10^−11 m^2/s
